For experiment [1], the target named is prostaglandin E2 type 2 (EP2) receptors (Homo sapiens, UniProt P43116). In words: Assay for binding to prostaglandin E2 receptors (3H-prostaglandin E2 displacement, membranes of transfected cells). The following applies: read-out: EP2 IC50; displacement of 3H-prostaglandin E2. The procedure: Assay for Binding to Prostaglandin E2 Receptors
All operations are performed at 4° C. Transfected cells expressing prostaglandin E2 type 1 receptors (EP1), type 2 (EP2), type 3 (EP3) or type 4 (EP4) receptors are harvested and suspended to 2 million cells per ml in Buffer A [50 mM Tris-HCl (pH 7.4), 10 mM MgCl2, 1 mM EDTA, 1 mM Pefabloc peptide, (Sigma, St. Louis, Mo.), 10 uM Phosporamidon peptide, (Sigma, St. Louis, Mo.), 1 uM Pepstatin A peptide, (Sigma, St. Louis, Mo.), 10 uM Elastatinal peptide, (Sigma, St. Louis, Mo.), 100 uM Antipain peptide, (Sigma, St. Louis, Mo.)]. […] Pelleted membranes are resuspended to 3-10 mg protein per ml, protein concentration being determined according to the method of Bradford [Bradford, M., Anal. Biochem., 72, 248 (1976)]. […]
Frozen membranes as prepared are thawed and diluted to 1 mg protein per ml in Buffer A. One volume of membrane preparation is combined with 0.05 volume test compound or buffer and one volume of 3 nM 3H-prostaglandin E2 (#TRK 431, Amersham, Arlington Heights, Ill.) in Buffer A. The mixture (205 μL total volume) is incubated for 1 hour at 25° C. […] To determine the amount of 3H-prostaglandin bound to the membranes, the dried filters are placed into plastic bags with scintillation fluid and counted in a LKB 1205 Betaplate reader (Wallac, Gaithersburg, Md.). […]

Sequences of proteins named here, by UniProt entry; tags and fusion partners are left off.
UniProt P43116, whole entry: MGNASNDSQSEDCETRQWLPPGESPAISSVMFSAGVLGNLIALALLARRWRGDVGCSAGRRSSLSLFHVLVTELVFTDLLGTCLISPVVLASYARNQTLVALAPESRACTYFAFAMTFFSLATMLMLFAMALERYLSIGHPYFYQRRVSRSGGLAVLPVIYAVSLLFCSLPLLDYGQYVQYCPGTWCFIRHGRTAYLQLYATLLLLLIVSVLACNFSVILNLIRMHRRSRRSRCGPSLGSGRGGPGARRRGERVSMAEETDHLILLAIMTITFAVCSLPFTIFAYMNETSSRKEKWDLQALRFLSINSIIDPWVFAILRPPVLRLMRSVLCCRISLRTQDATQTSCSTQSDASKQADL

Another experiment deals with EP2 (Homo sapiens, UniProt P43116). In words: EP2 cAMP EC50 (Table 1). The experiment is classed as cell-based. The following applies: read-out: EP2 cAMP EC50.

This is an account of results in patent US7622475B2, “EP2 agonists” (Pfizer Inc, priority 2006, dated 2009).

Take `CC(C)(C)OC(=O)c1csc(CCCN(CCOc2cc(Cl)cc(Cl)c2)S(C)(=O)=O)n1`: the IC50 (commonly the concentration needed to halve the response being measured) in experiment [1] came to 0.0053 µM. The EC50 (commonly the midpoint of the concentration-response curve) on EP2 is 0.018 µM.
